For orientation: IC50 means the concentration needed to halve the response being measured. Lower therefore signals inhibition by little substance.

This test relates to isolated saphenous artery of rabbits. The experiment in a line: Vessel-relaxing action in vitro, phenylephrine-induced contractions of isolated saphenous artery rings. The settings on record: Oryctolagus cuniculus; concentration reducing phenylephrine-induced contraction of rabbit saphenous artery rings by 50% of control. As to the method: The inhibition of the enzyme is investigated in an in vitro assay with recombinant Rho kinase II. The vessel-relaxing action is determined using phenylephrine-induced contractions of isolated rings of the saphenous artery of rabbits.
Vessel-Relaxing Action In Vitro
Individual 3-mm-wide rings of the isolated saphenous artery of rabbits are introduced into 5 ml organ baths with Krebs-Henseleit solution (37° C., gassed with carbogen). The vessel tone is monitored isometrically and registered. Contractions are induced by addition of […] of phenylephrine/ml, which is washed out again after 4 min. After a number of control cycles, the rings are preincubated with the substance to be examined, with the dosage being increased for each further cycle, and the subsequent contraction is compared to the intensity of the last control contraction.

In the case of `Cc1c[nH]c2nccc(Oc3ccc(Nc4cc(Cl)nc(N)n4)cc3F)c12` [Example 5, 6-Chloro-N^4-{3-fluoro-4-[(3-methyl-1H-pyrrolo[2,3-b]pyridin-4-yl)oxy]phenyl}pyrimidine-2,4-diamine], the IC50 was found to be 100 nM.

The record behind these values is patent publication US8329716B2, “Hetaryloxy-substituted phenylamino pyrimidines as Rho kinase inhibitors” (Bayer Intellectual Property GmbH, priority 2004, dated 2012).
